# Measured values: PMC4979595, “Pilot PET Study to Assess the Functional Interplay Between ABCB1 and ABCG2 at the Human Blood–Brain Barrier” (Clinical Pharmacology and Therapeutics, 2016)
# Amino acid sequences for entries named in this document (tags omitted).
# UniProt P08183, whole entry: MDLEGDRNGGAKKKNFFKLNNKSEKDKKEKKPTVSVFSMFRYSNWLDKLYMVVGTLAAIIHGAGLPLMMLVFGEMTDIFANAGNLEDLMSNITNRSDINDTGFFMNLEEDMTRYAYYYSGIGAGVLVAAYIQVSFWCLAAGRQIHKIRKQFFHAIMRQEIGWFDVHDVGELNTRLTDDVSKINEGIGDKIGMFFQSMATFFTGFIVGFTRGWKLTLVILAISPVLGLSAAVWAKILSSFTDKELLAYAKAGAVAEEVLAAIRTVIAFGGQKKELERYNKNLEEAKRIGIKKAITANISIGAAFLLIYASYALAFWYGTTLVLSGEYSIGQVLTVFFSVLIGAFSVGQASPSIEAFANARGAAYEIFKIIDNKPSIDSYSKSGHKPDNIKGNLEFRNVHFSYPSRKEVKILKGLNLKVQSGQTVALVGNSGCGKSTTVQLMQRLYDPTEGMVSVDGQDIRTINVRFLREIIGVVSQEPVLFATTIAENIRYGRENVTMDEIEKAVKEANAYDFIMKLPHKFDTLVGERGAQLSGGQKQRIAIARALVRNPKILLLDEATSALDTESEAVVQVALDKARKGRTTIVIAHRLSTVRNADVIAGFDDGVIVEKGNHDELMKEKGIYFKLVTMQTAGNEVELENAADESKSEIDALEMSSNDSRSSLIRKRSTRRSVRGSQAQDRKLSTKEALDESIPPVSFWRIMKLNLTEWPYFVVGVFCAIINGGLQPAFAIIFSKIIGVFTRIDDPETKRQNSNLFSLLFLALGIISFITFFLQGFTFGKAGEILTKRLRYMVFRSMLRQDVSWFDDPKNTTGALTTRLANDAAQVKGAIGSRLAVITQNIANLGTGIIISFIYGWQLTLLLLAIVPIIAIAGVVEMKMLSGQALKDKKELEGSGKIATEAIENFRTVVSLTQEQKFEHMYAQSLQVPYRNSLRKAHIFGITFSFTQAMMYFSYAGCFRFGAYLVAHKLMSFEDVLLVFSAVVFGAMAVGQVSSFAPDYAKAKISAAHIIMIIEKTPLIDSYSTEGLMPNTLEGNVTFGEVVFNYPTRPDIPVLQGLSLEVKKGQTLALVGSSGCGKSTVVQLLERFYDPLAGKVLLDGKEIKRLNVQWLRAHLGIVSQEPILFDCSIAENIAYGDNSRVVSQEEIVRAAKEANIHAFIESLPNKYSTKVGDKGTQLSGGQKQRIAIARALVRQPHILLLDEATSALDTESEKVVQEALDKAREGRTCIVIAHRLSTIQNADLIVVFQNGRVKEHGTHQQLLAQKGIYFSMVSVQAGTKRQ
# Key:
# [1] = system: Abcb1a/b; set-up: method as in PMID 22828996, PMID 23305710; conditions: transporter knockout mice; cited from earlier work
# [2] = target: ABCB1 versus ABCG2 (Homo sapiens, UniProt P08183); test: in vitro; conditions: mdck, IC50 for inhibition of ABCB1 transport lower than for inhibition of ABCG2 transport
SMILES,increase in brain distribution in Abcb1a/b^(‐/‐) mice as compared with wildtype mice [1],selectivity ratio at 120 min [2]
COc1cc2c(cc1OC)CN(CCc1ccc(NC(=O)c3cc(OC)c(OC)cc3NC(=O)c3cnc4ccccc4c3)cc1)CC2 [[^11C]tariquidar],1.9 fold,–
COc1cc2c(cc1OC)CN(CCc1ccc(NC(=O)c3cc(OC)c(OC)cc3NC(=O)c3cnc4ccccc4c3)cc1)CC2 [tariquidar],–,28
